Paper PMC10922772 (ACS infectious diseases, 2024)

Target: SARS-CoV-2 Mpro (Severe acute respiratory syndrome coronavirus 2, UniProt P0DTD1)
Experiment: biochemical
Conditions: read-out: % inhibition at 20 μM

SMILES | inhibition at 20 µM
C=CC(=O)N(c1ccc(C(C)(C)C)cc1)C(C(=O)NC(C)(C)C)c1cccnc1 (centres unmarked) [Compound 27, N-(4-(tert-Butyl)phenyl)-N-(2-(tert-butylamino)-2-oxo-1-(pyridin-3-yl)ethyl)acrylamide] | 35%
C=CC(=O)N(c1ccc(C(C)(C)C)cc1)C(C(=O)NCc1ccccc1)c1cccnc1 (centres unmarked) [Compound 28, N-(2-(Benzylamino)-2-oxo-1-(pyridin-3-yl)ethyl)-N-(4-(tert-butyl)phenyl)acrylamide] | 23%
